For one compound, IC50 results are on record in ChEMBL document CHEMBL4609972, “Histone deacetylase 8 (HDAC8) and its inhibitors with selectivity to other isoforms: An overview” (Eur J Med Chem, 2019).

This experiment deals with T1, Histone deacetylase 8 (Homo sapiens, UniProt Q9BY41).
T1 sequence (Q9BY41 whole entry): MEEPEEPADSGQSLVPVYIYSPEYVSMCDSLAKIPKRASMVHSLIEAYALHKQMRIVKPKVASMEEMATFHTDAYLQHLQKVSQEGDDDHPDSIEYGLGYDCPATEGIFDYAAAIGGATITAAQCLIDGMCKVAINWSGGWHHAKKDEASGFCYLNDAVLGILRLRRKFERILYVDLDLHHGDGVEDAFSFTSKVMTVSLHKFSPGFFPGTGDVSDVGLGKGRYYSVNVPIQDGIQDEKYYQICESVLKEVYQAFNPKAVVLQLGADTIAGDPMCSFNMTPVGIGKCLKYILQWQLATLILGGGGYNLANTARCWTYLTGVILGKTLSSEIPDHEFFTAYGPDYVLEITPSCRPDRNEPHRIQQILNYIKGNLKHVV
Kind of experiment: Inhibition of HDAC8 (unknown origin).

The compound `O=C(CCCCCCC(=O)Nc1ccccc1)NO` [VORINOSTAT] returned an IC50 of 370 nM.
